In patent US20170340688A1, “TITRATED EXTRACTS OF CYNARA SCOLYMUS AND USES THEREOF” (priority 2014, published 2017):

Tested on: MSTO211H and NCI-H2052
Experiment: ATPlite cell vitality, extract in association with pemetrexed, MPM cell lines
Assay type: cell-based, human

Structure (SMILES): Nc1nc2[nH]cc(CCc3ccc(C(=O)N[C@@H](CCC(=O)O)C(=O)O)cc3)c2c(=O)[nH]1 [PMTX, pemetrexed]
- cell vitality (ATPlite) (72 h, extract 6 μg/ml where co-treated): cytotoxic for the MPM cells
- concentration of pemetrexed sufficient to lower the cell vitality in double treatment (double treatment with extract at non-cytotoxic dose (6 μg/ml)): 10 µM
